Assay results: ChEMBL document CHEMBL4428114, “An LP1 analogue, selective MOR agonist with a peculiar pharmacological profile, used to scrutiny the ligand binding domain” (Bioorg Med Chem, 2016)

The chains behind the UniProt entries cited, without tags or fusion partners. Where a name states a change or a piece, a line headed by the entry shows the natural chain unless it says otherwise.
UniProt P34975: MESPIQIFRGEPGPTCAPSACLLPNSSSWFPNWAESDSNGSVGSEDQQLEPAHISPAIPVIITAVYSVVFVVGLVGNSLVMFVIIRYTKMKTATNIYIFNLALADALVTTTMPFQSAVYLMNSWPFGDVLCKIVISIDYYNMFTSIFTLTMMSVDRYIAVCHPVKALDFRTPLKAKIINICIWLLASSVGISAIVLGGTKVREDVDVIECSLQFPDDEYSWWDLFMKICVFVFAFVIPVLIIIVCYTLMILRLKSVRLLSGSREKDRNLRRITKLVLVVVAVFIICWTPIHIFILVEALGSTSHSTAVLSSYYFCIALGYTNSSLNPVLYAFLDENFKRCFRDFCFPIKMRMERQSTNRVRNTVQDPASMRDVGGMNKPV

Molecular target: Kappa-type opioid receptor (Rattus norvegicus, UniProt P34975)
Experiment: Displacement of [3H]U69593 from rat KOR expressed in CHO cells
Type: cell-based

CN(C(=O)Cc1ccc(Cl)c(Cl)c1)C1CCCCC1N1CCCC1 (stereo unspecified)
Ki: 0.6 nM
